From ChEMBL document CHEMBL5236663, “Structure-activity relationship of dibenzylideneacetone analogs against the neglected disease pathogen, Trypanosoma brucei” (Bioorg Med Chem Lett, 2023)

System: HEK293
Assay: Cytotoxicity against human HEK293 cells assessed as reduction in cell viability at 20 uM measured after 48 hrs by resazurin reagent based multilabel reader analysis
Type: toxicity
Conditions: hek293, 48 h

How did the CC50 turn out when `COc1ccc(/C=C/C(=O)CC(=O)/C=C/c2ccc(OC)cc2OC)c(OC)c1` was run?
The CC50 was over 20 µM.
